Test results as given in ChEMBL document CHEMBL1157843, “Synthesis and anticonvulsant activity of a new 6-alkoxy-[1,2,4]triazolo[4,3-b]pyridazine” (Eur J Med Chem, 2010).

Experiments:
Mus musculus [1] = test: Protective index, ratio of TD50 for ip dosed mouse to ED50 for maximum electric stimulus-induced seizure in ip dosed mouse; format: functional
Mus musculus [2] = test: Protective index, ratio of TD50 for po dosed mouse to ED50 for maximum electric stimulus-induced seizure in po dosed mouse; format: functional
Procedure, shortened: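 Oral version of the phase-II protocol in KunMing mice (18–25 g). Groups of 10 dosed p.o. over a range giving at least three points between 10–90% MES protection or rotarod minimal neurotoxicity. Testing at 2 h time to peak effect. ED50 and TD50 with 95% confidence intervals from regression. PI = TD50/ED50.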

NC(=O)N1c2ccccc2C=Cc2ccccc21 [CARBAMAZEPINE]
PI (Mus musculus [1]): 8.1
PI (Mus musculus [2]): 14.1
